Literature values as cited in PMC8011576 (Nature biomedical engineering, 2020).

Conditions: human clinical data, systemic compartment, oral product; ref Digard et al.[28]; cited from earlier work

## CN1CCC[C@H]1c1cccnc1 [Nicotine, nicotine]
  Cmax: 52 ± 9 nM
